Data on 3 substances can be found in paper PMC6408514.

Sequences of proteins named here, by UniProt entry; tags and fusion partners are left off. Residues count along the entry.
UniProt P02786, 121-760: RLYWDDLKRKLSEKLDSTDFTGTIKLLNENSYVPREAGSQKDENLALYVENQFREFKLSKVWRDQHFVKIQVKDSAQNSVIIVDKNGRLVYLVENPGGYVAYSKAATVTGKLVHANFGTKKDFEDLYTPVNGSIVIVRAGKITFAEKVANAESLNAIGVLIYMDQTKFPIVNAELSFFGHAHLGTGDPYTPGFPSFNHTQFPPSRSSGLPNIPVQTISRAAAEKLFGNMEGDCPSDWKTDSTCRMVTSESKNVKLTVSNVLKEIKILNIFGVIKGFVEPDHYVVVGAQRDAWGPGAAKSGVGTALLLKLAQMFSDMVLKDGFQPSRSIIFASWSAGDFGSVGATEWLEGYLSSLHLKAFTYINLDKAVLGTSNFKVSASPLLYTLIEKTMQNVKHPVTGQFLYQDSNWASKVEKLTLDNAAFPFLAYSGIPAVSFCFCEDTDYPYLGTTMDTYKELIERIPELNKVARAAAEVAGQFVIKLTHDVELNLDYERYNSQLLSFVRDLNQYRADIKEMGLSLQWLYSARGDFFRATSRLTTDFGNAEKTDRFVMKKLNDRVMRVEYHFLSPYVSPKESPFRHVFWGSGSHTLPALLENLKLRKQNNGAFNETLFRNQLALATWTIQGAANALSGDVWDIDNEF

This experiment addresses human transferrin receptor 1 (CD71) ectodomain, residues 121-760, octa-histidine tagged (human) (UniProt P02786). As to the kind of experiment: SPR; Biacore X100; His-tagged CD71 immobilised on an NTA sensor chip (22 µg/mL, 60 s), ferritins as analytes 1000-62.5 µg/mL (multi-kinetic mode), 25 °C, 30 µL/min, 10 mM PBS pH 7.4; fitted with a heterogeneous analyte model (Supplementary Table 4) or a 1:1 model (Supplementary Table 5). (In general: SPR reads the build-up and loss of mass on a sensor chip optically.)
In the case of “human H-chain ferritin mutant C (Q14A/D15A/R22A/F81A/Q83A) (natural protein)”, the Kd (usually the equilibrium constant for the complex coming apart) turned out to be 1300 nM; the koff – broadly, the first-order rate constant of dissociation – came to 0.00155 s⁻¹; the kon (in general, the second-order rate constant of association) worked out at 1200 M⁻¹ s⁻¹.

The substance “human H-chain ferritin mutant B (F81A/Q83A) (natural protein)” yielded a Kd of 130 nM, a koff of 0.0089 s⁻¹ and a kon of 66000 M⁻¹ s⁻¹.

On to “human H-chain ferritin mutant A (Q14A/D15A/R22A) (natural protein)”, for which the Kd amounted to 140 nM, the koff is 0.0018 s⁻¹ and the kon came out at 170000 M⁻¹ s⁻¹.
